Measurements reported in patent EP4732851A9, “LINKER, ANTIBODY-DRUG CONJUGATE, AND PREPARATION METHOD THEREFOR” (Fudan University, priority 2024, dated 2025).

Tests used:
NCI-N87 cells = test: NCI-N87 nude mouse xenograft model; type: in vivo, Balb/c nude; conditions: 5 mg/kg via tail vein, two doses (day 16 and day 23); compared to hIgG1-vc-MMAE control group
Description: Referring to the in vivo efficacy assay method in Example 11, 200 µL of a suspension containing 5×10^6 NCI-N87 cells in PBS and Matrigel (PBS:standard concentration Matrigel = 1:1) was inoculated subcutaneously into the flank of female nude mice (Balb/c nude, 5-6 weeks old). When the tumor volume reached approximately 400 mm^3 (day 16), the mice were randomly grouped (n=8) based on tumor volume and body weight. Doses of 5 mg/kg T-Dxd (DAR=8) and 5 mg/kg 1-G07-LP5 (DAR=3.4) were administered via tail vein injection for a total of two doses (on day 16 and day 23), with hIgG1-vc-MMAE set as the negative control. […] The difference in efficacy between the two groups was statistically significant (p < 0.05).

NCI-N87-luc cells = test: NCI-N87 intracranial model; type: in vivo, Balb/c nude mice; conditions: 5 mg/kg via tail vein, 2 doses one week apart; compared to vehicle group
Description: An NCI-N87 intracranial model was established to evaluate 1-G07-LP5. NCI-N87-luc cells were resuspended in PBS and adjusted to a concentration of 1×10^8/mL. A microsyringe was used to draw 5 µL of the cell suspension (5×10^5 cells) for inoculation. Female Balb/c nude mice aged 6-7 weeks were anesthetized with Avertin and fixed on a brain stereotaxic instrument. Using the mouse's bregma as the center, the microsyringe needle was moved 2 mm to the right and 0.6 mm upward. After drilling through the skull with a triangular needle, the needle was inserted 4 mm downward, then withdrawn 1 mm, and the tumor cells were injected at a constant speed. The burr hole was sealed with bone wax, and finally the scalp was sutured. 9 days later, D-luciferin (150 mg/kg) was injected intraperitoneally, and fluorescence images were acquired using a small animal fluorescence/CT in vivo imaging system to quantify the brain fluorescence signal intensity. Grouping was based on fluorescence signal intensity (Radiance (p/sec/cm^2/sr)) and mouse body weight. Vehicle control, 5 mg/kg 1-G07-LP5, and 5 mg/kg T-Dxd groups were set up. […] Fluorescence images were acquired every 1-2 weeks using the small animal fluorescence/CT in vivo imaging system to monitor brain fluorescence signal intensity (Radiance (p/sec/cm^2/sr)) and mouse body weight, and tumor growth curves were plotted.

trastuzumab deruxtecan [T-Dxd]
tumor growth (NCI-N87 cells): inhibited tumor growth
intracranial tumor growth (brain fluorescence signal) (NCI-N87-luc cells): completely inhibited intracranial tumor growth
